Assay results taken from patent US8460868B2, “Genetic markers for schizophrenia and bipolar disorder” (priority 2007, dated 2013).

Tested on: patients with schizophrenia
Assay: CATIE trial drug response (>20% decrease in PANSS Total Score) by HPCAL1/SV2C genotype
Format: in vivo, human
Conditions: for OR vs. Low: vs low scoring genotype(s)
Procedure: The Clinical Antipsychotic Trials of Intervention Effectiveness (CATIE), a large federally funded clinical trial designed to assess the efficacy of antipsychotics in a real world setting, is a valuable resource for determining the role of genes in drug response (Stroup et al., Schizophr. Bull. 29:15-31 (2003); Lieberman et al., N. Engl. J. […] As part of the CATIE trial SNP genotyping was performed for roughly half of the trial participants (Sullivan et al., Mol. Psychiatry 13:570-584 (2008)). When combined with clinical drug response data, the genotyping data make possible a reduction to practice for the current invention as it relates to pharmacogenomic applications. The design of the CATIE study has been described in detail by others (Stroup et al., Schizophr. Bull. 29:15-31 (2003); Lieberman et al., N. Engl. J. […] A total of 738 subjects consented to provide DNA for genetic study. Details regarding SNP genotyping and quality control have been recently published (Sullivan et al., Mol. Psychiatry 13:570-584 (2008)). Genotype and phenotype data for the CATIE trial were made available to qualified researchers through The NIMH Center for Collaborative Genetic Studies on Mental Disorders. For reduction to practice, we evaluated data for 417 patients with schizophrenia self reported as having exclusively European ancestry. This same patient population was described in a recent study by Sullivan and coworkers, which confirmed that there is no hidden stratification in the sample (Sullivan et al., Mol. Psychiatry 13:570-584 (2008)). […] Golden Helix, Bozeman, Mont.). To generate a P value, HelixTree calculates analysis of deviance (a likelihood ratio statistic) that compares the observed contingency table vs. an expected contingency table created with all the possible variations of the genetic model. […] The standard FDA registration trial definition of response of >20% decrease in Positive and Negative Syndrome Scale (PANSS Total Score) was used to assign subjects to a response category. […] Bull. 29:73-80 (2003)). […] The tables report odds ratios relative to the baseline values (sample not segmented by genotype) and relative to values for the low scoring, mutually exclusive genotype(s).

Row | SMILES | OR vs. Low (SV2C rs4704297 genotype C/C, C/G (C)) | OR vs. baseline (SV2C rs4704297 genotype C/C, C/G (C), vs sample not segmented by genotype) | OR vs. Low (SV2C rs4610441 genotype C/C (C)) | OR vs. Low (SV2C rs10474464 genotype C/C (C))
1 | Cc1nc2n(c(=O)c1CCN1CCC(c3noc4cc(F)ccc34)CC1)CCCC2 [risperidone] | 3.49 | 1.39 | – | –
2 | OCCOCCN1CCN(C2=Nc3ccccc3Sc3ccccc32)CC1 [quetiapine] | – | – | 4.06 | 4.06
